In the assay the target is hTRPA1 (Homo sapiens (Human), UniProt O75762). As to the kind of experiment: Dose response calcium flux assay (FLIPR), ChanTest hTRPA1-CHO stably transfected cell line. Conditions: read-out: IC50 (FLIPR), CHO-K1 Tet-On human TRPA1 cells, cinnamaldehyde agonist (final 100 uM). The procedure:
IC50 Determinations of Exemplified Compounds Dose Response Assay: Chan Test hTRPA1-CHO Stably Transfected Cell Line
CHO-K1 Tet-On_HOMSA_TRPA1_Clone_20
Chinese Hamster Ovary cells, inducible expression
• Ham's F-12 with 10% tetracycline-free FBS • 1× penicillin-streptomycin • 1× glutamax • 0.01 mg/ml Blasticidin • 0.40 mg/ml Zeocin • The cell line doubling rate was ˜15 hours. […] Experiments were run at 24 hours post induction. Plating Conditions CHOK1/TRPA1 Cells: • Harvested cells with 0.025% trypsin/EDTA. • Resuspended cells in growth media without selection antibiotics. • Measured cell density and diluted to 2.4×10^5 cells/ml in media containing 1 ug/ml Doxycycline Plate 25 ul/well into 384 well black/clear tissue culture-treated plates. • Incubated overnight at 37° C. […]
After incubation, both the cell and compound plates were brought to the FLIPR and 20 ul of the diluted compounds/antagonist/bk were transferred to the cell plates by the FLIPR. […] During the compound addition as well as agonist addition, fluorescence readings were taken simultaneously from all 384 wells of the cell plate every 1.5 seconds. Five readings were taken to establish a stable baseline, then 20 ul of sample was rapidly (30 ul/sec) and simultaneously added to each well of the cell plate. […] Responses (increase in peak fluorescence) in each well following agonist addition was determined. […]
For orientation: Calcium flux is commonly read through the fluorescence of an indicator in the cells.

The chains behind the UniProt entries cited, without tags or fusion partners.
UniProt O75762, whole entry: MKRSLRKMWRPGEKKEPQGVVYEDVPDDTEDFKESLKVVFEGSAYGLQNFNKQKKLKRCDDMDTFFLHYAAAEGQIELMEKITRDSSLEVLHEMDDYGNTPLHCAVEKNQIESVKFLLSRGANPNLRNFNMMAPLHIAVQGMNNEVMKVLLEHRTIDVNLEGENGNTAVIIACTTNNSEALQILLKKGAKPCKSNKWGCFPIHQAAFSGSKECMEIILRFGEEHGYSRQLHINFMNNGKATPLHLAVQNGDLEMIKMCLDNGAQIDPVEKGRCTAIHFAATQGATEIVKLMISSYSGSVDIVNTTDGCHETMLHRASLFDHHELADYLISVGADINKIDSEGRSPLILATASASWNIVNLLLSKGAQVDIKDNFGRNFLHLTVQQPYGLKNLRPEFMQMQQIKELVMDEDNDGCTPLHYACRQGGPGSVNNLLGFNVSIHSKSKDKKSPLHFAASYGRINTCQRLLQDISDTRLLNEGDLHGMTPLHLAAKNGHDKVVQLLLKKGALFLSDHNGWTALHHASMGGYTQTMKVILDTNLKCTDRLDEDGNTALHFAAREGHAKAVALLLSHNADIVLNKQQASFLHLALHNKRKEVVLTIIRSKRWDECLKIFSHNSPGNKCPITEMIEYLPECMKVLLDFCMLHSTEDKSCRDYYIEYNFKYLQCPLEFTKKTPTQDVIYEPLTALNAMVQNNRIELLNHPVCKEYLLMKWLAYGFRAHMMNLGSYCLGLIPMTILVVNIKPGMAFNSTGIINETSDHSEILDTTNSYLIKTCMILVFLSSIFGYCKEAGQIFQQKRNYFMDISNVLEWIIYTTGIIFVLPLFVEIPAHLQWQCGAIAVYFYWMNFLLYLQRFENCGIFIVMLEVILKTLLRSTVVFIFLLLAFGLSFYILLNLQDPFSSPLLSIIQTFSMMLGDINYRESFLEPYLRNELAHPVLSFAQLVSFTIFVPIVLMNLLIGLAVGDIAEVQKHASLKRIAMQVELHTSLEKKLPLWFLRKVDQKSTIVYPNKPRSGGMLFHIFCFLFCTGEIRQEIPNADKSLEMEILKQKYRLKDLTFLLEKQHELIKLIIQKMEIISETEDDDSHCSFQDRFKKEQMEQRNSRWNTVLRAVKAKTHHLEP

This note sets out measurements from patent publication US9580411B2, “Substituted sulfonamide compounds” (Hoffmann-La Roche Inc., priority 2012, dated 2017).

In general, IC50 refers to the concentration that inhibits the measured activity by half. As to `CC(C)N(CC(=O)NCc1cccc(-c2ccc(C(F)(F)F)cc2)c1)S(=O)(=O)c1ccccc1`, the IC50 worked out at 48 nM.
